Data: paper PMC5378956, “Inhibition of delta-secretase improves cognitive functions in mouse models of Alzheimer's disease” (Nature Communications, 2017)

Tests used:
[1] = tested on: mice overexpressing tau 1-368; details: mouse, in vivo
[2] = Caco-2 monolayer permeability screen; details: human

## Nc1ccc(N2CCOCC2)c2nonc12 [compound 11, 7-(morpholin-4-yl)-2,1,3-benzoxadiazol-4-amine]
[1]
  phosphorylation of tau, cognitive and synaptic function in tau 1–368 mice: did not affect
Tau P301S mice; 10 mg kg−1 d−1 oral, 3 months
  PP2A activity: increased PP2A activity
Tau P301S mice; mouse, in vivo
  synaptic density in CA1 (electron microscopy): significantly increased the density of synapses
Tau P301S mice; tau P301S mice
  density of microglia: decreased the density of microglia
[2]
  efflux ratio at 2 h, 10 µM: 0.2
5XFAD mice; 5XFAD mice
  density of microglia: decreased the density of microglia
5XFAD mice; mouse, in vivo
  density of synapse (electron microscopy): notably increased the density of synapse
